These are literature values, as cited in patent publication US20220296825A1, “EXHALATION DELIVERY SYSTEM FOR AND METHOD OF TREATING SINUS DISEASE” (OptiNose AS, priority 2018, published 2022).

The chains behind the UniProt entries cited, without tags or fusion partners.
UniProt P04150, whole entry, species assumed: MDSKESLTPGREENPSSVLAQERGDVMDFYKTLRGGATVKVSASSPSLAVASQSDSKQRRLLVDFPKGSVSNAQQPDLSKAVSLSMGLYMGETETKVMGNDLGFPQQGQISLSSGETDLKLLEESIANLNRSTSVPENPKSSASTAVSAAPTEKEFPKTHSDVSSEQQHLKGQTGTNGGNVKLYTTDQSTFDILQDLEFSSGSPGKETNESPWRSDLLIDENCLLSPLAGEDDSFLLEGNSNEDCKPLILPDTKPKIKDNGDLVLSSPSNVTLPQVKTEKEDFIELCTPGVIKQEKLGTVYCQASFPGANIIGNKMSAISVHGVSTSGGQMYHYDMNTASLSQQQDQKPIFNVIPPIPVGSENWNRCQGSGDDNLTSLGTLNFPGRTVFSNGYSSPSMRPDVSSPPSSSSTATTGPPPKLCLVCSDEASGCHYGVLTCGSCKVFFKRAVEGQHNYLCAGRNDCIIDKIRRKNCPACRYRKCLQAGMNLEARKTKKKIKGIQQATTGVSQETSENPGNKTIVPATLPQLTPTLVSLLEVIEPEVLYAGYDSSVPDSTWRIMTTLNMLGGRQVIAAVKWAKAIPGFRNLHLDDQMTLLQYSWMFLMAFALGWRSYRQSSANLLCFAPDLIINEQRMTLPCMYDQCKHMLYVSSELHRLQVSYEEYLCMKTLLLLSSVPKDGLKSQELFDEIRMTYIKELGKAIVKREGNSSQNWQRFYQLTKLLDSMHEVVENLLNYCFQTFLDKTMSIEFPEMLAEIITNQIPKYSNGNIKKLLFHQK

For the series, the target named is glucocorticoid receptor (Homo sapiens, UniProt P04150). As to conditions: fluticasone propionate compared with budesonide.

For fluticasone propionate, the “glucocorticoid receptor binding affinity, fold higher” value is reported as 1.7 ×.
